In publication PMC10848371:

How the values were obtained:
[1] = protein stability, Fig. S3H-I (method not described in text); conditions: glycan lost; control: GFP-WT-gPD-1
[2] = confocal IF with organelle markers, COS-1/293T, 18 h; conditions: glycan lost; control: GFP-gPD-1 WT
[3] = sucrose gradient fractionation and immunoblot, Jurkat T cells; conditions: glycan lost; control: GFP-gPD-1 WT

B1: PD-1 (programmed cell death protein 1): 3NQ (protein)
parent chain: MQIPQAPWPVVWAVLQLGWRPGWFLDSPDRPWNPPTFSPALLVVTEGDNATFTCSFSNTSESFVLNWYRMSPSNQTDKLAAFPEDRSQPGQDCRFRVTQLPNGRDFHMSVVRARRNDSGTYLCGAISLAPKAQIKESLRAELRVTERRAEVPTAHPSPSPRPAGQFQTLVVGVVGGLLGSLVLLVWVLAVICSRAARGTIGARRTGQPLKEDPSAVPVFSVDYGELDFQWREKTPEPPVPCVPEQTEYATIVFPSGMGTSSPARRGSADGPRSAQPLRPEDGHCSWPL
decreases: degradation_or_half_life [1] | localisation_or_trafficking [2] | localisation_or_trafficking [3]
